Results on three compounds are retold here after ChEMBL document CHEMBL1121735, “Synthesis and adrenoceptor affinity of some highly polar beta-substituted catecholamines” (J Med Chem, 1981).

Amino acid sequences for entries named in this document (tags omitted). A change or cut given only in a name is not applied to a line headed by its entry.
UniProt P15823: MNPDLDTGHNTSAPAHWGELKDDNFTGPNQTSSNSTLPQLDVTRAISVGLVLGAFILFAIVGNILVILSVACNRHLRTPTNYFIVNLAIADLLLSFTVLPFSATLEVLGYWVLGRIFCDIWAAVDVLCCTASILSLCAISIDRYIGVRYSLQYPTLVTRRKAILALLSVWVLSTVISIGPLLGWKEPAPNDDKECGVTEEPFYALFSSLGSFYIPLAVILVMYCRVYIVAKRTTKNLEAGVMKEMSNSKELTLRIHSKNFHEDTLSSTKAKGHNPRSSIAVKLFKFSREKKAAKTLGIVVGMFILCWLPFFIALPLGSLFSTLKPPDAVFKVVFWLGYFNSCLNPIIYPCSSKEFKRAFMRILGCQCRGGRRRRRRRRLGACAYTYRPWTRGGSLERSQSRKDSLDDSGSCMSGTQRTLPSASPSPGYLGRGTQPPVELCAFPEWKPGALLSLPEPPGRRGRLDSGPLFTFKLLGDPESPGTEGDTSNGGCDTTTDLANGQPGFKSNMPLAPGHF
UniProt P23944: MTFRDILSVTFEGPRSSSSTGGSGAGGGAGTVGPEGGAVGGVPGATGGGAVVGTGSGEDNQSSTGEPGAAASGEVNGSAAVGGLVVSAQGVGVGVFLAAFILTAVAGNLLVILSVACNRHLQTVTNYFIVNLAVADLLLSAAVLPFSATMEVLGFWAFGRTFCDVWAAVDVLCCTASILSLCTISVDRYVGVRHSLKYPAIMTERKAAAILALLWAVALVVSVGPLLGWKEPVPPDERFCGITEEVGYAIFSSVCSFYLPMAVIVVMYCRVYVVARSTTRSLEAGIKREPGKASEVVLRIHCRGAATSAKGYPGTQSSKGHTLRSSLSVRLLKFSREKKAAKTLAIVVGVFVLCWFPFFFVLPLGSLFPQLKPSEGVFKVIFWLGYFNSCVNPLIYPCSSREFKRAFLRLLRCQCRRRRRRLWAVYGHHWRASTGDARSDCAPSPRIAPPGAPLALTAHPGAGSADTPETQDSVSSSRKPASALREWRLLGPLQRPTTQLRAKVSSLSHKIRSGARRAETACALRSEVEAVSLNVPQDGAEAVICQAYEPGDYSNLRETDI
UniProt P43140: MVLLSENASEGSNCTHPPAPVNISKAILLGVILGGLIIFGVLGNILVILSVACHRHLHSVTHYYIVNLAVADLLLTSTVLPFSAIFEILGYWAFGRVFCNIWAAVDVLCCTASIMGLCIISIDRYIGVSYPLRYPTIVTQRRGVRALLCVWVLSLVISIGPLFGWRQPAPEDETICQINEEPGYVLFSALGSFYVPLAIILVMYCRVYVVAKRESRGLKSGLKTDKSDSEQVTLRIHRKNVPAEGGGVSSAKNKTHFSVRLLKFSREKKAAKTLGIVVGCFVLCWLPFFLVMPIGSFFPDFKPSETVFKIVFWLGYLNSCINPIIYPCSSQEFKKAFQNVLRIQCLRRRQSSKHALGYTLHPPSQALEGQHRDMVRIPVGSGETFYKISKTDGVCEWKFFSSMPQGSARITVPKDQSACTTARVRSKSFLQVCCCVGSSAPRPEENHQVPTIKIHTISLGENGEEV
UniProt P22086: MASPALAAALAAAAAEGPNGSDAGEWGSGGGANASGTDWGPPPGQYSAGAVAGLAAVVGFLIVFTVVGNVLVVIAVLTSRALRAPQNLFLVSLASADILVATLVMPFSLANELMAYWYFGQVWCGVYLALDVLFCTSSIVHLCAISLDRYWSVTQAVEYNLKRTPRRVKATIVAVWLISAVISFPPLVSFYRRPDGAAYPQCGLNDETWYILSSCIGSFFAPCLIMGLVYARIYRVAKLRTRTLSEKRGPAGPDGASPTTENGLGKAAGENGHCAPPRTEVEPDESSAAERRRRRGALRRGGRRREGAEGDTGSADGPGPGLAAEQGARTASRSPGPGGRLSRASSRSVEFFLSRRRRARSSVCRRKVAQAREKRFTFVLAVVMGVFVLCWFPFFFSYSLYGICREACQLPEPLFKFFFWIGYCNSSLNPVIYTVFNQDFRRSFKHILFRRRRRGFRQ
UniProt P19328: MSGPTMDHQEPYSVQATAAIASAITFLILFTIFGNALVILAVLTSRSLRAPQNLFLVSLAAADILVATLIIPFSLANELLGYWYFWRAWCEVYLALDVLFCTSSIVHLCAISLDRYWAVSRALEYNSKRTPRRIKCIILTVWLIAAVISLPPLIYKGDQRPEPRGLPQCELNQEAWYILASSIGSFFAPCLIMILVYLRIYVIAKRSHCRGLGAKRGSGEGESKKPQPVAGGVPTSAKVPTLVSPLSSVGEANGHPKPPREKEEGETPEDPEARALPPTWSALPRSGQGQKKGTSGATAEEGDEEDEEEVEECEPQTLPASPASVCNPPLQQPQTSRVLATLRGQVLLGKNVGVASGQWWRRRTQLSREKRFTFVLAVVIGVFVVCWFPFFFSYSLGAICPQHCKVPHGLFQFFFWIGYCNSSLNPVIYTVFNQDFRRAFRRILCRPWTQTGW
UniProt P22909: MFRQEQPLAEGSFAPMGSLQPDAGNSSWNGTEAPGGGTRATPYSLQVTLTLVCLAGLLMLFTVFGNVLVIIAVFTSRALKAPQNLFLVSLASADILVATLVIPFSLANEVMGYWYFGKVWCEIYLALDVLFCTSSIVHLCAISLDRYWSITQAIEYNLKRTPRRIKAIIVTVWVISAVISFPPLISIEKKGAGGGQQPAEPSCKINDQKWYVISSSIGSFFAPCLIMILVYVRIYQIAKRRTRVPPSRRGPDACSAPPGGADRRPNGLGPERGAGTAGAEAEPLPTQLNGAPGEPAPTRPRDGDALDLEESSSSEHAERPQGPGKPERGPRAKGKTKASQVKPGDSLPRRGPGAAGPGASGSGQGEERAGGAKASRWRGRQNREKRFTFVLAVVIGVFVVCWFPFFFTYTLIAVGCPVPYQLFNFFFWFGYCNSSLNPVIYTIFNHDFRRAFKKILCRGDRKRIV
UniProt P18090, whole entry, looked up: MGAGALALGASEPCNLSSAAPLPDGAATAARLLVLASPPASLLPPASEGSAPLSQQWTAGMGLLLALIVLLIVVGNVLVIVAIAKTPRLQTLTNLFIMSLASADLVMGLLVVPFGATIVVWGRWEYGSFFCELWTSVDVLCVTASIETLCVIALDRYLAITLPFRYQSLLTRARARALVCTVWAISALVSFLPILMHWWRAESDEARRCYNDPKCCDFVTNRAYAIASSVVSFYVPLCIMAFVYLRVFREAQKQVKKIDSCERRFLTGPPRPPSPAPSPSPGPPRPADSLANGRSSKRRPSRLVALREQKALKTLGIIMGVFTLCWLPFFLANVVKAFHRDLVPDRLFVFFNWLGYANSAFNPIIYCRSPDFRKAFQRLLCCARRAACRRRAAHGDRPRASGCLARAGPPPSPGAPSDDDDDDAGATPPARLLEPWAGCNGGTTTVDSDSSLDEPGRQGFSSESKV
UniProt P10608, whole entry, looked up: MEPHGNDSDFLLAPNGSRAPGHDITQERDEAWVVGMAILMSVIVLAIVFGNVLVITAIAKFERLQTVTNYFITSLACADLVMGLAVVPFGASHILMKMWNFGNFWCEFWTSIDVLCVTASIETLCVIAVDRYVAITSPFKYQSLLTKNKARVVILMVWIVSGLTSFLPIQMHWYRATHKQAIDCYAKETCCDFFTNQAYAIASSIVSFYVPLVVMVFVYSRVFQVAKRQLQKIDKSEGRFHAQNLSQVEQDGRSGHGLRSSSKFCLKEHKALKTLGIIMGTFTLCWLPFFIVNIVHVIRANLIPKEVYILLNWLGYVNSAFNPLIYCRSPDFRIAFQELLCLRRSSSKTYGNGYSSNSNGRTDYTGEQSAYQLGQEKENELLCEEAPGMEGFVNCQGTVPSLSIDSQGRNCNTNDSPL
UniProt P26255: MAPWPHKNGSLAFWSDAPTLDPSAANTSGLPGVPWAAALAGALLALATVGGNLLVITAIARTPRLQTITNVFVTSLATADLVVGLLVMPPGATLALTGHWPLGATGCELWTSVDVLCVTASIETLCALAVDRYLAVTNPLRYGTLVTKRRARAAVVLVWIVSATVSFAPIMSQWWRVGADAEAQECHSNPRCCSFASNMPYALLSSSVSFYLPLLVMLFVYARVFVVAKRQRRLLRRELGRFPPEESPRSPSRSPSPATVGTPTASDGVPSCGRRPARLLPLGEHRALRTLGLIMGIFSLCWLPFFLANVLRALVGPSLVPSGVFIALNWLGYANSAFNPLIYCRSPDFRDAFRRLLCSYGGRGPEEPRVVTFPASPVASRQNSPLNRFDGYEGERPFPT

Assay [1] concerns the target Adrenergic receptor alpha (Rattus norvegicus) (UniProt P15823+P23944+P43140+P22086+P19328+P22909). Kind of assay: Relative affinity for Alpha adrenergic receptor. The class given is protein assay.
Assay [2] has as its target Adrenergic receptor beta (Rattus norvegicus) (UniProt P18090+P10608+P26255). Kind of assay: Relative affinity for Beta adrenergic receptor. The class given is protein assay.

Structures are written as SMILES.

In the case of `CNCC(c1ccc(O)c(O)c1)S(=O)(=O)O` (racemic), the Relative affinity stood at 0.17 in assay [1] and 0.026 in assay [2].

For the compound `NCC(c1ccc(O)c(O)c1)S(=O)(=O)O` (racemic), the Relative affinity came to 0.47 in assay [1] and 0.022 in assay [2].

For `CC(C)NCC(c1ccc(O)c(O)c1)S(=O)(=O)O` (racemic), the Relative affinity in assay [1] was 0.052; in assay [2], 0.32.
